Source: US6867305B2, “Synthesis of epothilones, intermediates thereto and analogues thereof” (Sloan-Kettering Institute for Cancer Research, priority 1996, dated 2005)

Tests used:
[1] = test system: MCF-7/Adr; experiment: Tumor cell growth inhibition in vitro; assay type: cell-based, human; settings: MCF-7/Adr vs MCF-7
Procedure: The cells were cultured at an initial density of 2-5×10^4 cells per ml. […] For solid tumor cells growing in a monolayer (such as MCF-7/Adr), cytotoxicitiy of the drug was determined in 96-well microtiter plates by using the sulforhodamine B method as described by Skehan et al (23) for measuring the cellular protein content. For cells that were grown in suspension (such as CCRF-CEM and its sublines), cytotoxicitiy was measured by using the 2,-3-bis(2-methoxy-4-nitro-5-sulfophenyl)-5carboxanilide)-2H terazodium hydroxide (XTT)-microculture tetrazonium method (24) in duplicate in 96-well microtiter plates. For both methods, the absorbance of each well was measured with a microplate reader (EL-340, Bio-Tek, Burlington, Vt.). Each run entailed six or seven concentrations of the tested drugs. Dose-effect relationship data were analyzed with the median-effect plot (25) by using a previously described computer program (26).

[2] = test system: Human lung carcinoma A549 cells; settings: A549 cells exposed to IC50-IC90: VBL 14.3 months, paclitaxel and adriamycin 21.3 months, dEpoB 21.4 months
Source text: Repeated exposure of human lung carcinoma A549 cells to sublethal concentrations of antitumor agents may lead to the development of drug resistance.
Every several weeks, cells were harvested for the dose-effect analysis to determine their folds of resistance (using SRB protein staining assay) based on comparing the IC50 value with the IC50 value of the untreated parent cells. Trypsinized/washed cells were used for propagating the cell lineage.

[3] = test system: MX-1 mammary carcinoma xenograft; settings: MX-1, i/p., ref 19 (FIG. 2)

COc1cccc2c1C(=O)c1c(O)c3c(c(O)c1C2=O)C[C@@](O)(C(=O)CO)C[C@@H]3O[C@H]1C[C@H](N)[C@H](O)[C@H](C)O1 [Adriamycin, doxorubicin, reference compound]
cross-resistance (fold of resistance vs parent cell line) [1]: 3.5 x
fold resistance developed to the drug after repeated exposure [2]: 16.3 fold
Therapeutic Effect Rank Order [3]: dEpoB>Adriamycin>Taxol
